Results on 1 substance are retold here after publication PMC6422167 (ChemMedChem, 2018).

Amino acid sequences for entries named in this document (tags omitted).
UniProt Q60492, whole entry: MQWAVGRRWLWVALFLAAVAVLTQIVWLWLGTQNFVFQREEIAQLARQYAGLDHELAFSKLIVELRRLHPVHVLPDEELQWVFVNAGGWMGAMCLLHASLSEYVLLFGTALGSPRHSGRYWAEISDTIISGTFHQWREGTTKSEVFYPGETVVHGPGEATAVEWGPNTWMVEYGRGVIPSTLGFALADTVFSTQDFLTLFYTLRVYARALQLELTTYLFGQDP

The target of this assay is σ1 receptor (Cavia porcellus, UniProt Q60492). The assay is described as follows: σ1 receptor binding affinity, competition against. Particulars: read-out: Ki σ1; homogenate of guinea pig brain; tested as oxalate; mean ± SD.

In the case of (-)-vesamicol [reference compound], the Ki worked out at 0.0258 ± 0.008 µM.

In general, Ki refers to a dissociation constant, usually derived from enzyme kinetics or from competition with a known ligand.
